Experiment: Template bleeding, clotting times and hematology in baboons
Type: in vivo, baboon
Conditions: animal 1; blood taken immediately after completion of second shunt
Experimental: Twenty-four hours before the ex vivo shunt was established, platelets were isolated from 500 ml of blood from the test animal and labelled with ca. 500 microcuries of indium-111 oxine (Medi+Physics, Emeryville, Calif.), which irreversibly and specifically binds to platelets with an efficiency of 50%. Immediately after labelling, these platelets were then injected back into the animal and allowed to circulate for 24 hours. Immediately before the start of the study, fibrinogen that had been isolated from the animal and labelled with iodine-131 (DuPont Nuclear, Boston, Mass.) was also injected back into the animal. Also at this time, baseline determinations of the clotting and template bleeding times were made, and blood samples were drawn for hematology studies.
At one- and two-hour time points, template bleeding times were measured, and blood samples were drawn to assess the hematology aggregation studies. Platelet aggregation studies were performed as described in Example V using ADP as the stimulus.
After a second, identical shunt was attached to the animal, the anti-platelet peptide GPen[…] was administered as an intravenous (IV) injection. A second series of scans was then obtained to ascertain the effect of the peptide on the platelet uptake pattern of the graft. […]

GPenGHRGDLRCA
Reduction of platelet count: 14% | Reduction of white blood cell count: 37%
